The test system of this assay is Mus musculus. Briefly: Antinociceptive activity against radiant heat-induced nociception in icv dosed CD1 mouse assessed as increase in tail withdrawal latency measured after 15 to 120 mins postdose by tail flick test. The note with it: strain CD1, Tail.

For the molecule `C=Cc1c(C)nn(CCC(=O)N2CCN(c3ccc(C)cc3)CC2)c(=O)c1N`, the ED50 was 31.8 µg.

The values above are taken from ChEMBL document CHEMBL1154181 (J Med Chem, 2009).
